Test results from patent US7585886B2, “Pyrrolidine derivative or salt thereof” (Astellas Pharma Inc., priority 2005, dated 2009).

Protein sequences, listed by entry. Tags and fused reporters are not part of them. Residues count along the entry.
UniProt P41180, 20-1078 limits assumed: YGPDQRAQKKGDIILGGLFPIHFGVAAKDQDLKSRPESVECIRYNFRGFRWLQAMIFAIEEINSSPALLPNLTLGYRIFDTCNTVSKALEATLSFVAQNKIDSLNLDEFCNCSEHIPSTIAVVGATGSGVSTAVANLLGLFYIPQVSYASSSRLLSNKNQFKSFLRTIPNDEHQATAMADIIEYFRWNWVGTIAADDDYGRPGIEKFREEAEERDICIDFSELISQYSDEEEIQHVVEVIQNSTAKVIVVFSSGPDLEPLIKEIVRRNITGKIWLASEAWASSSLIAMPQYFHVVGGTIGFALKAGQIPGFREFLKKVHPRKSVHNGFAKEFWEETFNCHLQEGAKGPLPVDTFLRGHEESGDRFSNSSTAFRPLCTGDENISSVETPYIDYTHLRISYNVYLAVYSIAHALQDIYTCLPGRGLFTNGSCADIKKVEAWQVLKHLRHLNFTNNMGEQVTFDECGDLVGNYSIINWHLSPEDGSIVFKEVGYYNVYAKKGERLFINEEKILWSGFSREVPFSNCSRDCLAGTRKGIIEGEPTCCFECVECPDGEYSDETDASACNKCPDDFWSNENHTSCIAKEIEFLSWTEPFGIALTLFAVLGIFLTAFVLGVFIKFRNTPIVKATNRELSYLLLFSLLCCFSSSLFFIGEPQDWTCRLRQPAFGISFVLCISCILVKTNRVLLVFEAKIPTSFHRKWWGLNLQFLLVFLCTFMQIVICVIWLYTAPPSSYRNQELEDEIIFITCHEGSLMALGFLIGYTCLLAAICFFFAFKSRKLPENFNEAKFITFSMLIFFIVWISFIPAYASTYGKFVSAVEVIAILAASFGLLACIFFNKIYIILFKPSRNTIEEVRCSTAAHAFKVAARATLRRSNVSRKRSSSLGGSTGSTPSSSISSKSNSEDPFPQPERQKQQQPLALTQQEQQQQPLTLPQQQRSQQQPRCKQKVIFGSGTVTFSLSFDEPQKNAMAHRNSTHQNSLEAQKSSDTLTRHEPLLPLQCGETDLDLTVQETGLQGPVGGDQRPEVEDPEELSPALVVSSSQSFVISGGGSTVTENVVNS
UniProt P10635, whole entry: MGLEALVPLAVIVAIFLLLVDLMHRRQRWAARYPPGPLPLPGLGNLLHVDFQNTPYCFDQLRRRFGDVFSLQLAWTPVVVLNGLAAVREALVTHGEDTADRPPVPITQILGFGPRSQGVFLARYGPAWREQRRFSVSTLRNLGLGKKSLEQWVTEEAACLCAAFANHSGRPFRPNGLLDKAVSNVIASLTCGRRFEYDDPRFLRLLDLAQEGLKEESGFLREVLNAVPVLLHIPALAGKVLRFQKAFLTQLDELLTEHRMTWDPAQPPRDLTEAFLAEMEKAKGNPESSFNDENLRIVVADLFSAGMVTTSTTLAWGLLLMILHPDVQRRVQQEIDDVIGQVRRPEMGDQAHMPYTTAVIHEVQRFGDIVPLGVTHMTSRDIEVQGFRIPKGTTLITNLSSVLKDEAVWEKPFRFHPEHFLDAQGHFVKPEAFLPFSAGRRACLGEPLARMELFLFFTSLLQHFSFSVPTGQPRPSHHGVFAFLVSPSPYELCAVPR

How the values were obtained:
[1] = Measurement of rat plasma calcium concentration after single oral administration; details: normal male rats, 3 mg/kg oral administration, tested form: HCl
Description: Test 2. Measurement of Rat Plasma Calcium Concentration and Plasma PTH Concentration
The compounds of the invention were administered to rats, and their influences upon the plasma calcium concentration and plasma PTH concentration were examined. The test was carried out by single oral administration of the compounds 5 or 6 normal male rats.
As a vehicle group, an MC solution prepared by adding 0.5% methyl cellulose (MC) solution or ethanol to a final concentration of 5% was administered at a dose of 5 ml/kg. As the comparative control, cinacalcet was dissolved in the MC solution and administered at a dose of 3 mg/kg. Each of the compounds, of the invention was dissolved or suspended the MC solution, or dissolved in ethanol and then diluted with the MC solution as occasion demands, and administered at a dose of 1, 3 or 10 mg/kg.
Blood samples were collected from the orbital venous plexus under ether anesthesia before the administration and 2Hours, 4Hours, or 8Hours in some cases, after the administration, and the plasma calcium concentration was measured using Calcium E-Test Wako (mfd. by Wako Pure Chemical Industries), and the plasma PTH concentration using Rat Intact PTH ELISA Kit (mfd. by Immutopics) or Rat Bioactive Intact PTH ELISA Kit (mfd. by Immutopics).

human CaSR = human CaSR (Homo sapiens, UniProt P41180); assay: Human calcium sensing receptor (CaSR) agonistic activity test (FLIPR, Fluo-3 intracellular Ca2+); details: read-out: EC50 (compound concentration showing 50% activity), human CaSR agonistic activity; HEK 293 cell stably expressing human CaSR; 0.5 mM Ca2+ buffer; solvent group 0%, 2 mM Ca2+ group 100%; tested form: HCl
Text: Test 1. Human Calcium Sensing Receptor (CaSR) Agonistic Activity Test
• 1) Preparation of Human CaSR Expression Vector
A DNA fragment coding for human CaSR was cloned in the standard method. Illustratively, using 203 to 2387 of NM_000388 as a DNA fragment D4, and 2210 to 3633 as a DNA fragment B2, they were amplified using a human kidney cDNA (mfd. by Invitrogen) as the template and using a DNA polymerase (a registered trade name: Pyrobest, mfd. by Takara Bio), and respectively cloned into a pCR2.1 vector using a pCR2.1-Topo vector (mfd. by Invitrogen). Next, DNA fragments prepared by digesting pCR2.1-D4 with SpeI and XbaI were inserted into the same sites of pcDNA3.1/Zeo(+) vector. Successively, the fragments prepared by digesting pCR2.1-B2 with SacI and XbaI were inserted into the SacI and XbaI sites of previously prepared pcDNA3.1/Zeo(+)-D4 (SpeI-XbaI), thereby obtaining a human CaSR expression vector pcDNA3.1/Zeo(+)-hCaSR in which human CaSR open reading frame (ORF) was contained in the pcDNA3.1/Zeo(+) vector. • 2) Preparation of Human CaSR Expression Cell […]
The HEK 293 cell stably expressing human CaSR was inoculated into a poly-D-lysine-coated black clear bottom 96 well plate (mfd. by BD Bioscience). […] In this connection, the compound to be evaluated was used by optionally diluting with the washing buffer supplemented with 0.5 mM Ca^2+. […]

CYP2D6 = CYP2D6 (Homo sapiens, UniProt P10635); assay: Human CYP2D6 inhibition test (fluorescence substrate AMMC); details: read-out: IC50 (concentration showing 50% inhibition), CYP2D6; recombinant CYP2D6, AMMC 1.5 μM, 37° C. 30 minutes; tested form: HCl
Description: Test 3. Human CYP2D6 Inhibition Test
Inhibitory activity evaluation for CYP2D6 was carried out by measuring it in accordance, roughly, with a reference (“Drug Metabolism and Disposition”, 2001, vol. 29, p. 1196-1200).
Final concentrations of the reagents in the enzyme reaction solution were respectively ser to CYP2D6=[…] (mfd. by BD Gentest, Cat. No.: 456217), reduced type nicotinamide adenine dinucleotide phosphate (NADPH) regeneration system (0.0081 mM nicotinamide adenine dinucleotide phosphate (NADP+), 0.41 mM glucose-6-phosphate, 0.41 mM MgCl2, […] glucose-6-phosphate dehydrogenase), and a fluorescence substrate AMMC=1.5 μM, 100 mM potassium phosphate buffer (pH 7.4). Each compound was made into a 50% acetonitrile solution and added to the enzyme reaction solution (acetonitrile final concentration 2.5%). The enzyme reaction was carried out at 37° C. for 30 minutes, the reaction was stopped using a stopping liquid (0.1 M tris(hydroxymethyl)aminomethane (Tris-base):acetonitrile=20:80), and then fluorescence intensity was measured. The concentration showing 50% inhibition (IC50) was calculated from the thus obtained fluorescence intensity, by defining the enzyme activity at the time of no compound addition as 100%.

- EC50 (human CaSR): 17 nM
- IC50 (CYP2D6): ≥ 6000 nM
Compound: C[C@@H](NC[C@H]1CN(C(=O)CCC(C)(C)C(=O)O)C[C@@H]1c1ccccc1)c1cccc2ccccc12
- Rat plasma calcium concentration reducing ratio (%) 4 hours after administration [1]: 18%
